Results reported in PubChem BioAssay (NCI).
Several values for one entry are separate records, joined by “and”; a condition that tells them apart may be missing. Equal values may be shown once. This is a selection; strong and weak results do not stand in their true shares.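 Note: values are percent growth. 100 is the growth of untreated cells, values between 100 and 0 indicate rising inhibition; between -100 and 0 indicates cell death.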 Activity calls are given as the source filed them. Rule for the calls: active = growth percent below 10; inactive = the rest.

What was measured:
Assay in all cases: NCI-60 one-dose screen, 48 h (100 = growth as untreated, 0 = no growth, -100 = all killed)
Settings in all cases: 10 µM
NCI/ADR-RES ovarian = test system: NCI/ADR-RES ovarian
T-47D breast = test system: T-47D breast
BT-549 breast = test system: BT-549 breast
MDA-MB-435 melanoma = test system: MDA-MB-435 melanoma
SW-620 colon = test system: SW-620 colon
MCF7 breast = test system: MCF7 breast
HCT-116 colon = test system: HCT-116 colon
HCC-2998 colon = test system: HCC-2998 colon
KM12 colon = test system: KM12 colon

Measured: growth

COc1ccc(C(=O)O)cc1N(CCCl)CCCl
inactive: NCI/ADR-RES ovarian 99.3% | T-47D breast 91.9% | BT-549 breast 97.1% | MDA-MB-435 melanoma 101% | SW-620 colon 92.1% | MCF7 breast 88.3% | HCT-116 colon 109% | HCC-2998 colon 105% | KM12 colon 101%

ClCCN1CCN(CCCl)CC1
inactive: NCI/ADR-RES ovarian 103% and 100% | T-47D breast 90.5% and 92% | BT-549 breast 126% and 96.5% | MDA-MB-435 melanoma 101% and 105% | SW-620 colon 108% and 98.1% | MCF7 breast 87.5% and 101% | HCT-116 colon 104% and 101% | HCC-2998 colon 103% and 106% | KM12 colon 111% and 102%

ClCCN(CCCl)Cc1ccc2c(c1)OCO2
inactive: NCI/ADR-RES ovarian 80.6% | T-47D breast 70.3% | BT-549 breast 75.2% | MDA-MB-435 melanoma 112% | SW-620 colon 76.9% | MCF7 breast 51.4% | HCT-116 colon 72.3% | HCC-2998 colon 87.4% | KM12 colon 105%

O=C1CCN(CCc2ccccc2)CC1
inactive: NCI/ADR-RES ovarian 87.3% | T-47D breast 12.8% | BT-549 breast 101% | MDA-MB-435 melanoma 102% | SW-620 colon 99.9% | MCF7 breast 95.2% | HCT-116 colon 109% | HCC-2998 colon 86.7% | KM12 colon 138%

Cc1ccc(CN(CCCl)CCCl)cc1
inactive: NCI/ADR-RES ovarian 94.3% | T-47D breast 87.2% | BT-549 breast 88.3% | MDA-MB-435 melanoma 106% | SW-620 colon 78.8% | MCF7 breast 80.5% | HCT-116 colon 89.6% | HCC-2998 colon 89.1% | KM12 colon 110%

CCOC(=O)N1CCC(=O)CC1
inactive: NCI/ADR-RES ovarian 104% | T-47D breast 95.1% | BT-549 breast 99.3% | MDA-MB-435 melanoma 104% | SW-620 colon 102% | MCF7 breast 96.5% | HCT-116 colon 105% | HCC-2998 colon 115% | KM12 colon 98.4%

BrCCN(CCBr)CCCN(CCBr)CCBr
inactive: NCI/ADR-RES ovarian 101% | T-47D breast 97% | BT-549 breast 96.5% | MDA-MB-435 melanoma 102% | SW-620 colon 102% | MCF7 breast 94.3% | HCT-116 colon 98.5% | HCC-2998 colon 110% | KM12 colon 101%

O=C1CCN(Cc2ccccc2)CC1
inactive: NCI/ADR-RES ovarian 109% | T-47D breast 108% | MDA-MB-435 melanoma 102% | SW-620 colon 101% | MCF7 breast 107% | HCT-116 colon 101% | HCC-2998 colon 117% | KM12 colon 106%

CC(=O)N(c1ccccc1)C1CCNCC1
inactive: NCI/ADR-RES ovarian 114% | T-47D breast 112% | MDA-MB-435 melanoma 112% | SW-620 colon 109% | MCF7 breast 92.6% | HCT-116 colon 115% | HCC-2998 colon 104% | KM12 colon 118%

Cc1cccc(CN(CCCl)CCCl)c1
inactive: NCI/ADR-RES ovarian 95.4% | T-47D breast 87.4% | BT-549 breast 93.7% | MDA-MB-435 melanoma 105% | MCF7 breast 85.8% | HCT-116 colon 84.6% | HCC-2998 colon 95.5% | KM12 colon 103%

N#CC1(Nc2ccc(Cl)cc2)CCN(Cc2ccccc2)CC1
inactive: NCI/ADR-RES ovarian 51.4% | T-47D breast 57% | BT-549 breast 56.8% | MDA-MB-435 melanoma 37.8% | SW-620 colon 45.2% | MCF7 breast 70.1% | HCT-116 colon 57.7% | HCC-2998 colon 79.8% | KM12 colon 38.2%

[O-][n+]1onc(-c2ncon2)c1-c1ncon1
inactive: NCI/ADR-RES ovarian 105% | T-47D breast 82.3% | BT-549 breast 107% | MDA-MB-435 melanoma 97.8% | MCF7 breast 84.1% | HCT-116 colon 35% | HCC-2998 colon 98.8% | KM12 colon 94.5%
active: SW-620 colon 6.32%

O=Cc1ccc(N(CCCl)CCCl)cc1Cl
active: T-47D breast 6%
inactive: NCI/ADR-RES ovarian 80.2% | BT-549 breast 89.8% | MDA-MB-435 melanoma 99.2% | SW-620 colon 61% | MCF7 breast 16% | HCT-116 colon 35.6% | HCC-2998 colon 91.1% | KM12 colon 108%

Cn1c(=O)[nH]cc(N(CCCl)CCCl)c1=O
inactive: NCI/ADR-RES ovarian 76.6% | T-47D breast 111% | BT-549 breast 94.6% | MDA-MB-435 melanoma 104% | SW-620 colon 68% | MCF7 breast 73.1% | HCT-116 colon 82.3% | HCC-2998 colon 84.1% | KM12 colon 102%

Fc1ccc(CCN(CCCl)CCCl)cc1
inactive: NCI/ADR-RES ovarian 110% | T-47D breast 94.7% | BT-549 breast 107% | MDA-MB-435 melanoma 98.5% | SW-620 colon 96.4% | MCF7 breast 90.5% | HCT-116 colon 100% | HCC-2998 colon 128% | KM12 colon 107%

Cc1ccc(NC2(C(N)=O)CCNCC2)cc1
inactive: NCI/ADR-RES ovarian 103% | T-47D breast 104% | BT-549 breast 79.5% | MDA-MB-435 melanoma 106% | SW-620 colon 106% | MCF7 breast 95.1% | HCT-116 colon 97.2% | HCC-2998 colon 94.4% | KM12 colon 102%

NC(Cc1ccccc1N(CCCl)CCCl)C(=O)O (stereo not drawn)
inactive: NCI/ADR-RES ovarian 61.7% | T-47D breast 51.7% | MDA-MB-435 melanoma 97.9% | SW-620 colon 65.8% | MCF7 breast 49% | HCT-116 colon 69% | KM12 colon 92.1%
active: HCC-2998 colon -46.5%

CC1(C)NC(=O)N(CCN(CCCl)CCCl)C1=O
inactive: NCI/ADR-RES ovarian 109% | T-47D breast 97.2% | BT-549 breast 109% | MDA-MB-435 melanoma 109% | SW-620 colon 107% | MCF7 breast 98.6% | HCT-116 colon 107% | HCC-2998 colon 106% | KM12 colon 108%

CC(C)NP(=O)(F)NC(C)C
inactive: NCI/ADR-RES ovarian 105% | T-47D breast 100% | BT-549 breast 115% | MDA-MB-435 melanoma 110% | SW-620 colon 105% | MCF7 breast 102% | HCT-116 colon 104% | HCC-2998 colon 101% | KM12 colon 104%

NC(=O)C1(Nc2ccccc2)CCNCC1
inactive: NCI/ADR-RES ovarian 103% | T-47D breast 101% | BT-549 breast 102% | MDA-MB-435 melanoma 103% | SW-620 colon 106% | MCF7 breast 98.3% | HCT-116 colon 101% | HCC-2998 colon 97.6% | KM12 colon 99.1%

Oc1ccc(O)c(CN(CCCl)CCCl)c1
inactive: NCI/ADR-RES ovarian 99% | T-47D breast 96.2% | BT-549 breast 103% | MDA-MB-435 melanoma 106% | SW-620 colon 89% | MCF7 breast 90% | HCT-116 colon 97.5% | HCC-2998 colon 101% | KM12 colon 99%

N#Cc1ccc(N(CCCl)CCCl)cc1
inactive: NCI/ADR-RES ovarian 119% | T-47D breast 92.9% | BT-549 breast 113% | MDA-MB-435 melanoma 97.9% | SW-620 colon 104% | MCF7 breast 102% | HCT-116 colon 99.2% | KM12 colon 108%

CC(C)(C)C(=O)CBr
inactive: NCI/ADR-RES ovarian 109% | T-47D breast 99.3% | BT-549 breast 96.7% | MDA-MB-435 melanoma 114% | SW-620 colon 102% | MCF7 breast 98.4% | HCT-116 colon 100% | HCC-2998 colon 108% | KM12 colon 106%

ClCCN1[C@@H](CCl)CC[C@@H]1c1ccccc1
inactive: NCI/ADR-RES ovarian 95.7% | T-47D breast 102% | BT-549 breast 83.1% | MDA-MB-435 melanoma 99.6% | SW-620 colon 94.4% | MCF7 breast 84.3% | HCT-116 colon 96% | HCC-2998 colon 88.2% | KM12 colon 108%

O=C1C(=O)N(CN(CCCl)CCCl)c2ccccc21
inactive: NCI/ADR-RES ovarian 100% | T-47D breast 94.4% | BT-549 breast 102% | MDA-MB-435 melanoma 105% | SW-620 colon 97.9% | MCF7 breast 95.9% | HCT-116 colon 99.6% | HCC-2998 colon 101% | KM12 colon 106%

NC(=O)C1(Nc2ccccc2)CCN(Cc2ccccc2)CC1
inactive: NCI/ADR-RES ovarian 106% | T-47D breast 106% | BT-549 breast 100% | MDA-MB-435 melanoma 109% | SW-620 colon 109% | MCF7 breast 104% | HCT-116 colon 111% | HCC-2998 colon 109% | KM12 colon 107%

O=C(O)Cc1c[nH]c2ccc(N(CCCl)CCCl)cc12
inactive: NCI/ADR-RES ovarian 99.3% | T-47D breast 99.6% | BT-549 breast 89.8% | MDA-MB-435 melanoma 103% | SW-620 colon 91.4% | MCF7 breast 91.3% | HCT-116 colon 101% | HCC-2998 colon 102% | KM12 colon 113%

Cc1ccc(N(CCCl)CCCl)cc1
inactive: NCI/ADR-RES ovarian 67.5% | T-47D breast 72.2% | MDA-MB-435 melanoma 85.8% | SW-620 colon 52.7% | HCT-116 colon 63.1% | HCC-2998 colon 84.6% | KM12 colon 101%

OCC#CCN(CCCl)CCCl
inactive: NCI/ADR-RES ovarian 83.5% | T-47D breast 97.2% | BT-549 breast 97.8% | MDA-MB-435 melanoma 99% | SW-620 colon 92.4% | MCF7 breast 89% | HCT-116 colon 102% | HCC-2998 colon 101% | KM12 colon 98.2%

O=C(O)c1ccc(N(CCCl)CCCl)cc1
inactive: NCI/ADR-RES ovarian 109% | T-47D breast 107% | BT-549 breast 109% | MDA-MB-435 melanoma 102% | SW-620 colon 103% | MCF7 breast 99.5% | HCT-116 colon 109% | HCC-2998 colon 107% | KM12 colon 108%

Cc1ccc(C(=O)N(CCCl)CCCl)cc1
inactive: NCI/ADR-RES ovarian 108% | T-47D breast 96.6% | BT-549 breast 103% | MDA-MB-435 melanoma 98.7% | SW-620 colon 101% | MCF7 breast 88.3% | HCT-116 colon 98.6% | HCC-2998 colon 101% | KM12 colon 112%

COc1c(C)cc(N(CCCl)CCCl)c2ccccc12
inactive: NCI/ADR-RES ovarian 48.1% | T-47D breast 49.5% | BT-549 breast 58% | MDA-MB-435 melanoma 57.3% | SW-620 colon 65.9% | MCF7 breast 29.8% | HCT-116 colon 61.4% | HCC-2998 colon 74.7% | KM12 colon 93.8%

ClCCN(CCCl)Cc1nc2cc(Cl)c(Cl)cc2[nH]1
inactive: T-47D breast 63.9% | BT-549 breast 74.4% | MDA-MB-435 melanoma 91.1% | SW-620 colon 58.5% | MCF7 breast 41.8% | HCT-116 colon 68.7% | KM12 colon 88.1%
